Molecular target: Isocitrate dehydrogenase [NADP] cytoplasmic (Homo sapiens, UniProt O75874, R132H)
Assay: Inhibition of IDH1 R132H mutant (unknown origin) using alphaKG as substrate in presence of NADPH by LC-MS/MS analysis

Sequences of proteins named here, by UniProt entry; tags and fusion partners are left off. Residues count along the entry.
UniProt O75874, 2-414 R132H limits assumed: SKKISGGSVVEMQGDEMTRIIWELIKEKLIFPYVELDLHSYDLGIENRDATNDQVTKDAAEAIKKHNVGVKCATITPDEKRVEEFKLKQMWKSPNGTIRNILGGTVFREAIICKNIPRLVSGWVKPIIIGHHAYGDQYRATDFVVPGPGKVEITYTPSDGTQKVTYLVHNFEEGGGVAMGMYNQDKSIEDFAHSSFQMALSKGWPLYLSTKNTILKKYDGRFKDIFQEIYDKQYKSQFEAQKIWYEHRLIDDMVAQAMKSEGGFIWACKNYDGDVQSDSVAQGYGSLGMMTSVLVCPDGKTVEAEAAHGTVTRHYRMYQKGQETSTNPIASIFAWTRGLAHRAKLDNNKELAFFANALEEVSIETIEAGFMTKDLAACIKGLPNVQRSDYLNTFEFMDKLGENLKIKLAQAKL

IC50: 36 nM
Structure (SMILES): CC(C)[C@H]1COC(=O)N1c1ccnc(N[C@@H](C)c2nc(-c3ccc(Cl)cc3)no2)n1

— ChEMBL document CHEMBL4196126, “Optimization of 3-Pyrimidin-4-yl-oxazolidin-2-ones as Orally Bioavailable and Brain Penetrant Mutant IDH1 Inhibitors” (ACS Med Chem Lett, 2018)
